# Test results from PubChem BioAssay AID641 (Vanderbilt High Throughput Screening Facility, 2007).
# Sequences of proteins named here, by UniProt entry; tags and fusion partners are left off.
# UniProt P21728, whole entry: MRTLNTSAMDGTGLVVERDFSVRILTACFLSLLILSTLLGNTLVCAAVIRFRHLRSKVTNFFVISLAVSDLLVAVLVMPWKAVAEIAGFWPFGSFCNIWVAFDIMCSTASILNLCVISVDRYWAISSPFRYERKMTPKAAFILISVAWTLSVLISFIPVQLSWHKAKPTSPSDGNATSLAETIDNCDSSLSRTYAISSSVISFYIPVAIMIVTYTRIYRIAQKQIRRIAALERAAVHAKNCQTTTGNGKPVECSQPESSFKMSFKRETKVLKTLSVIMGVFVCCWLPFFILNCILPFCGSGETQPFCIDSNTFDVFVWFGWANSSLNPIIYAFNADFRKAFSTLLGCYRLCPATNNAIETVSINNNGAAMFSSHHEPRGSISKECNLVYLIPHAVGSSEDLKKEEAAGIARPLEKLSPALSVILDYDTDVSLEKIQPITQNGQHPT
# The list shows a part of the results, in another mix than the full data. Some results for these compounds are left out of this collection, so the calls shown say nothing about other tests. Activity calls are given as the source filed them.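 Rule for the calls: active = luminescence count or its row- and column-corrected plate score outside the 99.7% band of the plate's sample wells, on either side; inactive = the rest.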
# Target: D(1A) dopamine receptor (Homo sapiens) (UniProt P21728)
# Experiment: D1 CRE-luciferase signal change, two-sided – cell-based, HEK293 D1, dopamine EC30, D1 allosteric modulator project, primary screen (AID 641)
# Conditions: dopamine EC30 potentiation, at 10 µM, actives deviate in either direction
row,Structure (SMILES),B-score
1,O=C(OC1CN2CCC1CC2)C(CO)(c1ccccc1)c1ccccc1 (configuration not stated),inactive: -0.0774
2,CN(C)c1cccc(C(=O)NCC2(N(C)C)CCCCC2)c1,inactive: -0.281
